Experimental data taken from patent US20020198172A1, “Method of treating motor neuron diseases and demyelinating diseases with citicoline” (priority 1997, published 2002).

Tested on: patient with chronic progressive multiple sclerosis
Type: in vivo
Settings: patient history since around 1986
Description: Since around 1986, they have received the following course of treatments and therapies:
Currently, they are diagnosed with chronic-progressive multiple sclerosis. They are afflicted with visual impairments, chronic fatigue, difficulty with speech articulation, tremors in the right and left hands, decreased fine motor movement in the right greater than left hands and decreased motor strength in their lower extremities. They are without weight bearing and is confined to a wheelchair. When asked what their major barriers are as far as functional abilities on a day to day basis, they place fatigue at the top of their impairment list followed by speech difficulties and decreased fine motor movement of their hands. They experienced marked spasticity of their lower extremities with the progression of their neurological condition over the course of several years and eventually resorted to a baclofen pump which was implanted in 1997. […] They receive 85 micrograms of baclofen per day.

B1: Betaseron: drug often used to treat ALS or MS (protein, UniProt P01574 22-187, looked up)
Interferon beta: MSYNLLGFLQRSSNFQCQKLLWQLNGRLEYCLKDRMNFDIPEEIKQLQQFQKEDAALTIYEMLQNIFAIFRQDSSSTGWNETIVENLLANVYHQINHLKTVLEEKLEKEDFTRGKLMSSLHLKRYYGRILHYLKAKEYSHCAWTIVRVEILRNFYFINRLTGYLRN
effect of earlier treatment on multiple sclerosis: no effect
